Target: water-soluble chlorophyll protein (WSCP) from Lepidium virginicum, reconstituted with chlorophyll (Lepidium virginicum) (UniProt O04797)
Assay: SEC; size-exclusion chromatography of the reconstituted (chlorophyll-bound) WSCP; buffer and column not told

stoichiometry N: 4
Substance: water-soluble chlorophyll protein (WSCP) from Lepidium virginicum, reconstituted with chlorophyll (from UniProt O04797 27-206) (natural protein)
